For 4 compounds, Ki and IC50 results are on record in patent US8710233B2 (Gruenenthal GmbH, priority 2005, dated 2014).

Sequences of proteins named here, by UniProt entry; tags and fusion partners are left off.
UniProt O35433, whole entry: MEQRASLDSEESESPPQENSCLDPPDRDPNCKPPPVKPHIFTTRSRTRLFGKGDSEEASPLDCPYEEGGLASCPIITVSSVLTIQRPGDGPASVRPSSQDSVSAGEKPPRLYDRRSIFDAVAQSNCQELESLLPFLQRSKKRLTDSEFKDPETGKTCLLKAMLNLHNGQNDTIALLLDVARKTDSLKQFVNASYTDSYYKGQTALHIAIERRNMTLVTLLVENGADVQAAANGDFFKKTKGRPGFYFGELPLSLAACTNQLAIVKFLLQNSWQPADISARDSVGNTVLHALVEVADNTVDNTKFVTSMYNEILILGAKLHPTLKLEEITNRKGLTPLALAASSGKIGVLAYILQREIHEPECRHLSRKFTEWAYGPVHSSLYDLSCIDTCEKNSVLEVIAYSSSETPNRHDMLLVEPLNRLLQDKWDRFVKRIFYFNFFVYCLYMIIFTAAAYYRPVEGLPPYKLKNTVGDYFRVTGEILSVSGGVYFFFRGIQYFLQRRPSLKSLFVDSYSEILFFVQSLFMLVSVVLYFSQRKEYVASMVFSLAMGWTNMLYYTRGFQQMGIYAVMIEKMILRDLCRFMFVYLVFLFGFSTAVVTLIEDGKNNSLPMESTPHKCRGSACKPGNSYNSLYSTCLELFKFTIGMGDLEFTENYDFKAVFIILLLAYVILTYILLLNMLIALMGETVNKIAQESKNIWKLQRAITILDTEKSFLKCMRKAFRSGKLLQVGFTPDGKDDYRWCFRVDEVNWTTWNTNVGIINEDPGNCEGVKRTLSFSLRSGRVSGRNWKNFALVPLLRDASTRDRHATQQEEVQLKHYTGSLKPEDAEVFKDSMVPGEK
UniProt Q8NER1, whole entry: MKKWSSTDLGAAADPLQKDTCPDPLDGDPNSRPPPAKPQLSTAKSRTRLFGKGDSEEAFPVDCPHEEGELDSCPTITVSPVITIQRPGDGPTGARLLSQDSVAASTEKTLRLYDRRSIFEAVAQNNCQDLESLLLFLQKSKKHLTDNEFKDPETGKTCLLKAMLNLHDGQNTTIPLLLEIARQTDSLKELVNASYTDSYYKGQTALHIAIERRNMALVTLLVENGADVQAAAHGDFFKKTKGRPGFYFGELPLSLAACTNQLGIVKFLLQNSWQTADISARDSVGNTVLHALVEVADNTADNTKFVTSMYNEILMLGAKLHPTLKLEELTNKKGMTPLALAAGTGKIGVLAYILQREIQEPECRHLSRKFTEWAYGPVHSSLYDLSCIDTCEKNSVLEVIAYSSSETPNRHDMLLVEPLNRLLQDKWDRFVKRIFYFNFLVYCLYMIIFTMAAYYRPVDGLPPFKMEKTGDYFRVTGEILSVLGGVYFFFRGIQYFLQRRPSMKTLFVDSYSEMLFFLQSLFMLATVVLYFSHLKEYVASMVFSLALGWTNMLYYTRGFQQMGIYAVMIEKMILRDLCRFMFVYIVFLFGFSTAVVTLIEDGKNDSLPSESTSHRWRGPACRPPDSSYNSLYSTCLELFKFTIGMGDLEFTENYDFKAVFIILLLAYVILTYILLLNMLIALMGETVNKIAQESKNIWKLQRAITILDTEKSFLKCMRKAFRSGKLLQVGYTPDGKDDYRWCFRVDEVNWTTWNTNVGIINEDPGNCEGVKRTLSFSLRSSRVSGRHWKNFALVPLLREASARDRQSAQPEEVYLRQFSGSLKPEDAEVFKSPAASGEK

Holding throughout (type): cell-based
Test [1] concerns the target T1, vanilloid receptor 1 (VR1/TRPV1) of the rat species (Rattus norvegicus, UniProt O35433).
T1 construct: The spinal column is removed from decapitated rats; from tissue; host or cells: primary cells dissociated from rat dorsal root ganglia
Briefly: FLIPR Ca2+ influx assay on rat dorsal root ganglia cells (pharmacological method I). To be noted: table 4; capsaicin; read-out: Ki (rat) Cap. An excerpt: I. Functional Investigation of the Vanilloid Receptor 1 (VR1/TRPV1 Receptor)
The agonistic or antagonistic action of the substances to be investigated on the vanilloid receptor 1 (VR1/TRPV1) of the rat species may be determined by the following assay. According to this assay, the influx of Ca^2+ through the receptor channel is quantified with the assistance of a Ca^2+-sensitive dye (type Fluo-4, Molecular Probes Europe BV, Leiden, Netherlands) in a Fluorescent Imaging Plate Reader (FLIPR, Molecular Devices, Sunnyvale, USA). […]
The DRGs are in each case repeatedly suspended, drawn by means of a syringe through no. […] The resultant pellet is in each case resuspended in 250 μL of complete medium and the cell count determined. […]
The cells are then loaded with 2 μM Fluo-4 and 0.01 vol. % Pluronic F127 (Molecular Probes Europe BV, Leiden, Netherlands) in HBSS buffer (Hank's buffered saline solution, Gibco Invitrogen GmbH, Karlsruhe, Germany) for 30 min at 37° C., washed 3× with HBSS buffer and, after a further 15 minutes' incubation at room temperature, used for Ca^2+ measurement in the FLIPR assay. […] Quantification proceeds by measuring the highest fluorescence intensity (FC, fluorescence counts) over time.
The FLIPR protocol comprises 2 additions of substance. […] After 5 minutes' incubation, 100 nM of capsaicin are added and the influx of Ca^2+ is again determined. […]

The next test deals with T2, vanilloid receptor (VR1) (Homo sapiens, UniProt Q8NER1).
T2 construct: expressed in transfected cells; host or cells: CHO K1 cells (ECACC), stably transfected
Briefly: FLIPR Ca2+ influx assay on CHO K1 cells transfected with the VR1 gene (pharmacological method II). An excerpt: In this FLIPR assay, the influx of Ca^2+ is quantified with the assistance of a Ca^2+-sensitive dye (type Fluo-4, Molecular Probes Europe BV, Leiden, Netherlands) in a Fluorescent Imaging Plate Reader (FLIPR, Molecular Devices, Sunnyvale, USA) as described below.
II. Functional Investigations on the Vanilloid Receptor (VR1)
The agonistic or antagonistic action of the substances to be investigated on the vanilloid receptor (VR1) may also be determined with the following assay. According to this assay, the influx of Ca^2+ through the channel is quantified with the assistance of a Ca^2+-sensitive dye (type Fluo-4, Molecular Probes Europe BV, Leiden, Netherlands) in a Fluorescent Imaging Plate Reader (FLIPR, Molecular Devices, Sunnyvale, USA).
Chinese hamster ovary cells (CHO K1 cells, European Collection of Cell Cultures (ECACC), Great Britain) are stably transfected with the VR1 gene. For functional investigations, these cells are plated out onto poly-D-lysine-coated, black 96 well plates with a clear bottom (BD Biosciences, Heidelberg, Germany) at a density of 25,000 cells/well. The cells are incubated overnight at 37° C. and 5% CO2 in a culture medium (Ham's Nutrient Mixture F12, 10 vol. % FCS (foetal calf serum), 18 μg/mL L-proline). On the following day, the cells are incubated with Fluo-4 (Fluo-4 2 μM, Pluronic F127 0.01 vol. %, Molecular Probes in HBSS (Hank's buffered saline solution), Gibco Invitrogen GmbH, Karlsruhe, Germany) for 30 minutes at 37° C. The plates are then washed 3 times with HBSS buffer and, after a further 15 minutes' incubation at room temperature, used for […] measurement in the FLIPR. […] Quantification proceeds by measuring the highest fluorescence intensity (FC, fluorescence counts) over time.
The FLIPR protocol comprises 2 additions of substance. […] After 5 minutes' incubation, 100 nM of capsaicin are added and the influx of Ca^2+ is again determined.
The percentage inhibition in comparison with the maximum achievable inhibition with 10 μM capsaicin is calculated.

A further test has as its target VR1/TRPV1 receptor (Homo sapiens, UniProt Q8NER1). In words: IC50 (human) after pH stimulus.
Setting [2] is: table 4, capsaicin, read-out: Ki (human) Cap.

Where two headings read alike, the source gives them in different places.

With `CC(C(=O)NCc1ccc(C(F)(F)F)nc1OCc1ccccc1)c1ccc(NS(C)(=O)=O)c(F)c1` (stereo not shown) [Example 106, N-(2-benzyloxy-6-trifluoromethyl-pyridin-3-ylmethyl)-2-(3-fluoro-4-methylsulfonamido-phenyl)-propionamide], in test [1], the Ki (usually a dissociation constant, usually derived from enzyme kinetics or from competition with a known ligand) turned out to be 0.5 nM. As to `CCCCOc1nc(C(F)(F)F)ccc1CNC(=O)C(C)c1ccc(NS(C)(=O)=O)c(F)c1` (stereo not shown) [Example 19, N-((2-butoxy-6-(trifluoromethyl)pyridin-3-yl)methyl)-2-(3-fluoro-4-(methylsulfonamido)phenyl)propanamide], the Ki on vanilloid receptor (VR1) (Table 2, displacement of capsaicin (100 nM), Cheng-Prusoff, read-out: Ki (human)) was found to be 0.3 nM. Further, inhibition against VR1/TRPV1 receptor (Table 2) was half-maximal at 31 nM (IC50). For `CC(C(=O)NCc1ccc(C(F)(F)F)nc1N1CCC(c2ccccc2)CC1)c1ccc(NS(C)(=O)=O)c(F)c1` (stereo not shown) [Example 137], on vanilloid receptor (VR1) (setting [2]), the Ki is 0.7 nM. Half-maximal inhibition against VR1/TRPV1 receptor (table 4) (IC50) was put at 12.5 nM. `CC(C(=O)NCc1ccc(C(F)(F)F)nc1C=CC(C)(C)C)c1ccc(NS(C)(=O)=O)c(F)c1` (stereo not shown) [Example 274, N-[2-(3,3-dimethyl-but-1-enyl)-6-trifluoromethyl-pyridin-3-ylmethyl]-2-(3-fluoro-4-methylsulfonamido-phenyl)-propionamide]: the Ki on vanilloid receptor (VR1) (setting [2]) worked out at 0.7 nM. Further, on VR1/TRPV1 receptor (table 4), the IC50 (as a rule, the concentration that gives 50% inhibition) was found to be 63 nM.
